{"sequences": {"note": "Chains of the proteins cited; added tags and fusions are not shown.", "UniProt P07954, whole entry": "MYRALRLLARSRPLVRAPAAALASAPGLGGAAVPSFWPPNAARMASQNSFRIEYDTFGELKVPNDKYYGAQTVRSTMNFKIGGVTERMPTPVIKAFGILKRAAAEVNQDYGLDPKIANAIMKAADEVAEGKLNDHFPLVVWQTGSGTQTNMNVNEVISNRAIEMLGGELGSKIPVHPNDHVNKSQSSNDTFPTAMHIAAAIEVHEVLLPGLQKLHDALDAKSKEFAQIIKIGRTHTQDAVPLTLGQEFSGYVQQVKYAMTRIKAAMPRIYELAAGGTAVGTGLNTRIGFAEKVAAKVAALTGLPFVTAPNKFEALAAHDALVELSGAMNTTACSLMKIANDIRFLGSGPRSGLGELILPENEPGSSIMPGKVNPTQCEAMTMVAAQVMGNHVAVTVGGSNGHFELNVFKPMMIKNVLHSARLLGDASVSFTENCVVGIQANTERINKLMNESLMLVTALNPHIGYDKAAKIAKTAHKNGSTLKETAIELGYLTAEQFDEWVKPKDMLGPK"}, "source": "PubChem BioAssay AID1347055", "about": "(National Center for Advancing Translational Sciences (NCATS), 2019)", "note": "This is a selection; strong and weak results do not stand in their true shares. Records with an inconclusive call do not appear. Some salts or complexes appear as unconnected parts, following the source record. Active and inactive are the calls of the source. Calls follow the shape of the dose curve; as a rule, active = well fitted inhibition curve with a large enough effect; inconclusive = small, poorly fitted or top-dose-only effect, or effect the other way; inactive = flat fitted curve, though single readings scatter. % is scaled to controls: 0 for no effect and ±100 for the full control effect.", "data": [{"biological_target": "Fumarate hydratase, mitochondrial (Homo sapiens) (UniProt P07954)", "assay": "Identification of activators of human fumarate hydratase by quantitative high-throughput screening; also: the screen sought activators but most active calls are inhibition curves; nearly all actives have a fitted effect of over 45% in size", "details": "FH coupled MDH/diaphorase resazurin fluorescence, 15 min; at 53.3 µM (top of the series) unless noted", "text": "Fumarate hydratase (FH) is a metabolic enzyme that is part of the Krebs-cycle, and reversibly catalyzes the hydration of fumarate to malate. Mutations of the FH gene have been associated with fumarate hydratase deficiency (FHD), hereditary leiomyomatosis, renal cell cancer (HLRCC), and other diseases. Currently there are no high-quality small molecule probes for studying human fumarate hydratase. To address this, we developed a quantitative high throughput screening (qHTS) FH assay and screened a total of 57,037 compounds in dose-response. While no inhibitors of FH were confirmed, a series of phenyl-pyrrolo-pyrimidine-diones (12 compounds) were identified as activators of human fumarate hydratase. […] The binding of two compounds from the series to human fumarate hydratase was confirmed by microscale thermophoresis. The low hit rate in this screening campaign confirmed that FH is a \"tough target\" to modulate, and the small molecule activators of human fumarate hydratase reported here may serve as a starting point for further optimization and development into cellular probes of human FH and potential drug candidates.\nFor primary high-throughput screen, 3 ul of FH solution (containing 13.33nM human fumarate hydratase, 13.33IU/ml malic dehydrogenase, 0.2mM NAD, 0.067mg/ml diaphorase and 0.067mM resazurin in the assay buffer (50 mM Tris pH 8.0, 5 mM MgCl2, 0.01% Brij 3) was dispensed into each well in a black solid bottom 1536-well assay plate (Greiner Bio-One) using a BioRAPTR FRD dispenser (Beckman Coulter, Brea, CA). A 1536-well pintool dispenser outfitted with 20 nl pins (Wako Automation, San Diego, CA) was used to transfer 20 nL of DMSO-solubilized compound (Cherrypick plates) to each 1536-well assay plate. Each compound was screened at five concentrations: 15 nM, 151 nM, 1.5 uM, 15.4 uM, 76.9 uM. Following compound transfer, plates were incubated in room temperature for 10 minutes. 1 uL of substrate solution containing fumaric acid (160 uM) was dispensed via BioRAPTR FRD to initiate the reaction. Plates were immediately transferred to a ViewLux microplate imager (PerkinElmer, Waltham, MA), and any resulting resorufin fluorescence was measured (exitation/emission, 525/598 nm) at 0 and 15 minutes. The exposure time is 1 second. Fluorescence from each well was normalized using enzyme-free and DMSO-treated control wells on each plate, and changes in fluorescence (delta RFU) were calculated using the difference in fluorescent signal for each well at 15 minutes versus 0 minutes.", "values": [{"smiles": "C/C1=C2N=C(/C=C3N=C(/C(C)=C4\\N=C(C(CC(N)=O)C4(C)CCC(=O)NCC(C)OP(=O)([O-])OC4C(CO)OC(n5cnc6cc(C)c(C)cc65)C4O)C4(C)N=C1C(CCC(N)=O)C4(C)CC(N)=O)C(CCC(N)=O)C\\3(C)C)C(CCC(N)=O)C/2(C)CC(N)=O.[C-]#N.[Co]", "note": "(configuration not stated)", "activity change, negative = inhibition": "inactive: 6.6%"}, {"smiles": "O=[N+]([O-])c1cccc([N+](=O)[O-])c1", "activity change, negative = inhibition": "inactive: -6.05% [at 79.9 µM]"}, {"smiles": "CCOP(=O)(CC)Oc1ccc([N+](=O)[O-])cc1", "note": "(configuration not stated)", "activity change, negative = inhibition": "inactive: 9.41%"}, {"smiles": "Cc1cccc([N+](=O)[O-])c1[N+](=O)[O-]", "activity change, negative = inhibition": "inactive: -5.65% [at 79.9 µM]"}, {"smiles": "C/C1=C2N=C(/C=C3N=C(/C(C)=C4\\[N-][C@@](C)([C@@H]5N=C1[C@](C)(CCC(=O)NC[C@@H](C)OP(=O)([O-])O[C@H]1[C@@H](O)[C@@H](n6cnc7cc(C)c(C)cc76)O[C@@H]1CO)[C@H]5CC(N)=O)[C@@](C)(CC(N)=O)[C@@H]4CCC(N)=O)[C@@](C)(CC(N)=O)[C@@H]\\3CCC(N)=O)C(C)(C)[C@@H]/2CCC(N)=O.[C-]#N.[Co+3]", "activity change, negative = inhibition": "inactive: -1.43%"}, {"smiles": "OCCSCCO", "activity change, negative = inhibition": "inactive: 0%"}, {"smiles": "CC1=C2[N-][C@@](C)([C@@H]3N=C(C(C)=C4N=C(C=C5N=C1[C@@](C)(CC(N)=O)[C@H]5CCC(N)=O)C(C)(C)[C@H]4CCC(N)=O)[C@](C)(CCC(=O)NC[C@@H](C)OP(=O)([O-])O[C@H]1[C@@H](O)[C@@H](n4cnc5cc(C)c(C)cc54)O[C@H]1CO)[C@H]3CC(N)=O)[C@@](C)(CC(N)=O)[C@@H]2CCC(N)=O.[C-]#N.[Co+3]", "activity change, negative = inhibition": "inactive: 8.87% [at 20.6 µM]"}]}]}
